In patent US20230335758A1, “REDOX FLOW BATTERY” (University of Massachusetts, priority 2022, published 2023):
Where two headings read alike, the source gives them in different places.

Legend:
[1] = vs SHE, literature; cited from earlier work
[2] = 17 mM in acetonitrile

In the case of “tetrabutylammonium vanadium(iv)bis-hydroxyiminodiacetate [[TBA]2[VBH]]”, the reduction potential [1] is given as roughly 0.3, the “oxidation to V^5+BH” value ([2]; one equivalent CoHCF, one equivalent of KPF6) is given as “quantitative oxidation” and the “oxidation to V^5+BH” value ([2]; stirred one hour with one equivalent CoHCF, no added K^+) is given as “less than 1%”.
